Drawing on patent US20240043860A1, “NOVEL HYDROXYPHENYLPYRUVATE DIOXYGENASE POLYPEPTIDES AND METHODS OF USE THEREOF” (Syngenta Crop Protection AG, priority 2020, published 2024), this text covers IC50 for one molecule.

Chains of the proteins cited; added tags and fusions are not shown.
UniProt A0ACD5V6K6, entry or part of it V218I/A327R/I340E/L359M: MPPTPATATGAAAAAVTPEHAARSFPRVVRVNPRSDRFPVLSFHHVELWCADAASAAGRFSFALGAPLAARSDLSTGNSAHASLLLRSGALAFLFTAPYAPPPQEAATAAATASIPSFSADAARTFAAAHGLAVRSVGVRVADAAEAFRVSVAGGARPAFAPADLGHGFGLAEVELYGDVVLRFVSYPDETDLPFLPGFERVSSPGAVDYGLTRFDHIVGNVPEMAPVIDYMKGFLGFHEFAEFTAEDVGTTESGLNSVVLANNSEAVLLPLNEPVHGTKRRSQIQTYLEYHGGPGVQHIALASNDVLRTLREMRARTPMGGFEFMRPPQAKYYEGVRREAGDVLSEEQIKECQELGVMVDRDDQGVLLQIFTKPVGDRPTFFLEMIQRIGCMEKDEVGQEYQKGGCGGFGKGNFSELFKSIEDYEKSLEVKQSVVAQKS
UniProt A0ACD5V6K6, entry or part of it V218I/A327R/I340E/L359M/G411A: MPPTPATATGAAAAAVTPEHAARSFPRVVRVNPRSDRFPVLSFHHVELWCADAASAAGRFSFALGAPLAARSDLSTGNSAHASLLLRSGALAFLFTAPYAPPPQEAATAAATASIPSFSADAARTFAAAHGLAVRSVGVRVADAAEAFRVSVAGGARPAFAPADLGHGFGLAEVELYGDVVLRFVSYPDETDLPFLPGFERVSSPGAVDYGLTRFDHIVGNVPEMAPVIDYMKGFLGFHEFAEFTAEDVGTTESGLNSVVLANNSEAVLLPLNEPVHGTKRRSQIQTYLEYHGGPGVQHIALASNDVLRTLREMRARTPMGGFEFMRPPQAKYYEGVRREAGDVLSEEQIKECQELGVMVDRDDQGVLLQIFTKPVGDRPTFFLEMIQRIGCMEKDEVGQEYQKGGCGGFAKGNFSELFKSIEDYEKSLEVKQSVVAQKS
UniProt A0ACD5V6K6, entry or part of it V218I/V260A/A327R/I340E/L359M: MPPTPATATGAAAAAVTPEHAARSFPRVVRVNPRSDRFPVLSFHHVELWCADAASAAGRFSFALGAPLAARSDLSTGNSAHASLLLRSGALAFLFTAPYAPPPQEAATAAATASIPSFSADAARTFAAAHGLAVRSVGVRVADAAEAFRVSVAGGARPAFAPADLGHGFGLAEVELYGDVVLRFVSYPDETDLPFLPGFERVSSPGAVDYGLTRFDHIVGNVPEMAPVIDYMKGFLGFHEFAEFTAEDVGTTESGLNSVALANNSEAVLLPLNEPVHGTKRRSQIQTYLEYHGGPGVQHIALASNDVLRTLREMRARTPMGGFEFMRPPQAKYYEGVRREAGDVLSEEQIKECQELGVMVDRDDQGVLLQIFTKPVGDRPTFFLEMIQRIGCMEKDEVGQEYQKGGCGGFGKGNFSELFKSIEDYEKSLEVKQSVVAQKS
UniProt A0ACD5V6K6, entry or part of it V218I/P271N/A327R/I340E/L359M: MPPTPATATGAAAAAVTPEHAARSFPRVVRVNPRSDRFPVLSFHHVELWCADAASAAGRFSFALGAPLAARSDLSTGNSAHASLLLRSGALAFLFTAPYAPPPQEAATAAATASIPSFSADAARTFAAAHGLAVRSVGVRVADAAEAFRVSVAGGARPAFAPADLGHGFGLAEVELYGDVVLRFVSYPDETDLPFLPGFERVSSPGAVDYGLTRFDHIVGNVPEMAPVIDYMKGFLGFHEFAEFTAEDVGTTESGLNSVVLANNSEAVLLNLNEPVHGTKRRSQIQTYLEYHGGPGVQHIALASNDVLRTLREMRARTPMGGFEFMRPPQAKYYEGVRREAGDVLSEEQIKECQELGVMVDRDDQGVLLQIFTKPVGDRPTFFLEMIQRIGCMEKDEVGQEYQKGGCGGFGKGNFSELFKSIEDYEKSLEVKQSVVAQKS
UniProt A0ACD5V6K6, entry or part of it R214G/V218I/V260A/A327R/I340E/L359M: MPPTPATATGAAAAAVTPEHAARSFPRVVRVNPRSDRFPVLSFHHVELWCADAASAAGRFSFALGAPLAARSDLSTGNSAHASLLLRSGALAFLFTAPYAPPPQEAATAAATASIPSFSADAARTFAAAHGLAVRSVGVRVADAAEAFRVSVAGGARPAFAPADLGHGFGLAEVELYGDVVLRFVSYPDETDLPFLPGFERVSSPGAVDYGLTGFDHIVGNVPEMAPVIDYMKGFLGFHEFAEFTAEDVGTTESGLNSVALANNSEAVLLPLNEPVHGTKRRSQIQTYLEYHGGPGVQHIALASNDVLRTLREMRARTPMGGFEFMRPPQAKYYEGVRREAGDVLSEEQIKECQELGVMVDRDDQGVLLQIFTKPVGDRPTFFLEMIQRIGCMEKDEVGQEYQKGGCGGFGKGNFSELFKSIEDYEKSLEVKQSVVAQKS
UniProt A0ACD5V6K6, entry or part of it R214G/V218I/A327R/I340E/L359Y/G411A: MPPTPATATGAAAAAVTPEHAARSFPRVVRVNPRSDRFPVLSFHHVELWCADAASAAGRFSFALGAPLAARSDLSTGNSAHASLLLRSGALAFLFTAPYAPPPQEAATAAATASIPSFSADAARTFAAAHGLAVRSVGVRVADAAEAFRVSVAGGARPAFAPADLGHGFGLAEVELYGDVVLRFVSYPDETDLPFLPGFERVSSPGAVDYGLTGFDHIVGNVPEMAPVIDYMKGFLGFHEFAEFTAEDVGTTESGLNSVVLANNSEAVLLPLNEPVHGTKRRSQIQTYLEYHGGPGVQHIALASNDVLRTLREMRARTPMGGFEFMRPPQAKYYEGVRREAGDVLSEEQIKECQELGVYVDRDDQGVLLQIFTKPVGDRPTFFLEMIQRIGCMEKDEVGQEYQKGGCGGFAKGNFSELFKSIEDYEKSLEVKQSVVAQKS
UniProt A0ACD5V6K6, entry or part of it R214G/V218I/P271N/A327R/I340E/L359M: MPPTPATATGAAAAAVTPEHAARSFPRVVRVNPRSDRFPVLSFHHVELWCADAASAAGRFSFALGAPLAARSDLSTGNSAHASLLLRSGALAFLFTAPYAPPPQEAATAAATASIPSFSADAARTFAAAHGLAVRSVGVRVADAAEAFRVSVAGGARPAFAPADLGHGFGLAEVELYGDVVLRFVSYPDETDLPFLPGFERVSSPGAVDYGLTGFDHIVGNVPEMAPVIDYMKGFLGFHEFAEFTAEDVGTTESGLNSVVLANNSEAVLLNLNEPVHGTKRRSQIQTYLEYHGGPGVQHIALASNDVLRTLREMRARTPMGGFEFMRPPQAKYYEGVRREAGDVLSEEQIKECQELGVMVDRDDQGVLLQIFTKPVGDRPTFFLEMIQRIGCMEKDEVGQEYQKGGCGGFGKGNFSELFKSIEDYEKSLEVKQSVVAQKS
UniProt A0ACD5V6K6, entry or part of it R214G/V218I/V260A/P271N/A327R/I340E/L359M: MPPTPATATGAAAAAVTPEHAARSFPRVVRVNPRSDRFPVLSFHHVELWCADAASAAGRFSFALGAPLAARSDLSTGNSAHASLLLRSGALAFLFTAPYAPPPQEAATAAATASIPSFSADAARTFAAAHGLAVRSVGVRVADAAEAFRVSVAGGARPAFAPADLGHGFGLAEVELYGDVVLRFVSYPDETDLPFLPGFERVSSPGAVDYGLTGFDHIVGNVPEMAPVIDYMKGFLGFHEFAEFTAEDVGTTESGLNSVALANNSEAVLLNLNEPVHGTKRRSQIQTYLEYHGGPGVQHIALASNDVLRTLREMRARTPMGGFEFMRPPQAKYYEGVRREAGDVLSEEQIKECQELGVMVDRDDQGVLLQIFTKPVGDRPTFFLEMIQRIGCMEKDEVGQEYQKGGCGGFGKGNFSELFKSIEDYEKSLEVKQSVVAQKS
UniProt A0ACD5V6K6, entry or part of it R214G/V218I/V260A/P271N/A327R/I340E/L359Y: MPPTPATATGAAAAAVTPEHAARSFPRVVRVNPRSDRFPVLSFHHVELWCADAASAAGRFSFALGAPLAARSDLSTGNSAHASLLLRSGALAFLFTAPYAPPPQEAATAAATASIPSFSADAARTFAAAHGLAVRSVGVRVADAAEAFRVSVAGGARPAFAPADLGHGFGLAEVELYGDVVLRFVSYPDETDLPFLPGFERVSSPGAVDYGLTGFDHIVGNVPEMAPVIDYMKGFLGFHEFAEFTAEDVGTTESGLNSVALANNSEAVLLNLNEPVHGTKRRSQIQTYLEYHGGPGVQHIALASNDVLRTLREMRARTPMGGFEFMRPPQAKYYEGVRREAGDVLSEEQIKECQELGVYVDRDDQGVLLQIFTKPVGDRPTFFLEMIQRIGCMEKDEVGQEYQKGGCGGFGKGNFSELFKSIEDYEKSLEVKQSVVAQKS
UniProt A0ACD5V6K6, entry or part of it R214G/V218I/V260A/P271N/A327R/I340E/L359M/K404N: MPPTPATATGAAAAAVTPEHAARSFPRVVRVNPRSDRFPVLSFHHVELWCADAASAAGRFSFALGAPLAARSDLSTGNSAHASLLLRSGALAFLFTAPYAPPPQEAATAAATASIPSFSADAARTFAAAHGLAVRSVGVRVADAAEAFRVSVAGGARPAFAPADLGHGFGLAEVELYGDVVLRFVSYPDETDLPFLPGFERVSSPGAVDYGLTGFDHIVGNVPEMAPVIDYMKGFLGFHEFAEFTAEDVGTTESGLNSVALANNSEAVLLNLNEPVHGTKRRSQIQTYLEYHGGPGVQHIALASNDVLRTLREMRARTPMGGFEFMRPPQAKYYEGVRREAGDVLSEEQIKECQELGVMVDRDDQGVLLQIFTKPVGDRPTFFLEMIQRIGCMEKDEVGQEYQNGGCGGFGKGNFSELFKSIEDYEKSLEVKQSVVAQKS
UniProt A0ACD5V6K6, entry or part of it V218I/P271N/S304T/A327R/I340E/L359M: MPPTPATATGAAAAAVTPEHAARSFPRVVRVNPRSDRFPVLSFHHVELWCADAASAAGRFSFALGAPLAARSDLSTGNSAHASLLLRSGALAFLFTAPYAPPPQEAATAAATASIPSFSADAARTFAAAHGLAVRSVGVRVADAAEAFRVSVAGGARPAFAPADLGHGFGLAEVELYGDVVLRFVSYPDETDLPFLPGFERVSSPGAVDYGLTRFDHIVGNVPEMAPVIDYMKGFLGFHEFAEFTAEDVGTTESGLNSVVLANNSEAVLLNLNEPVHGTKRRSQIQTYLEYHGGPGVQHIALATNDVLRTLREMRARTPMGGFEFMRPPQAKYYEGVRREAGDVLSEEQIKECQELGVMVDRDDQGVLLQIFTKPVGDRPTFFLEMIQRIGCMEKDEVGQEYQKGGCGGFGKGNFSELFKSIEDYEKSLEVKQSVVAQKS
UniProt A0ACD5V6K6, entry or part of it R214G/V218I/S304T/A327R/I340E/L359Y/G411A: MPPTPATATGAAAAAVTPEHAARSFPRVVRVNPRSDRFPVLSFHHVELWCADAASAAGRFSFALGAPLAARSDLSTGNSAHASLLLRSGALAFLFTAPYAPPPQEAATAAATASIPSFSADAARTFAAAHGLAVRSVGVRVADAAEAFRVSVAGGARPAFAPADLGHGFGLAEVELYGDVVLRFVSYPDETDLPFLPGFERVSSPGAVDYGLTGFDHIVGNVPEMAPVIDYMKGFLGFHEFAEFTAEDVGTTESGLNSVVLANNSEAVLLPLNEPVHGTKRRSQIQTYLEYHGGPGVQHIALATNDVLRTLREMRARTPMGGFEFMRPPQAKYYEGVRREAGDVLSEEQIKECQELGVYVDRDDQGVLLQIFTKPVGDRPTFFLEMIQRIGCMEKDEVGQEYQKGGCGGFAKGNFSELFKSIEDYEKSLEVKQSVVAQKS
UniProt A0ACD5V6K6, entry or part of it R214G/V218I/P271N/S304T/A327R/I340E/L359M: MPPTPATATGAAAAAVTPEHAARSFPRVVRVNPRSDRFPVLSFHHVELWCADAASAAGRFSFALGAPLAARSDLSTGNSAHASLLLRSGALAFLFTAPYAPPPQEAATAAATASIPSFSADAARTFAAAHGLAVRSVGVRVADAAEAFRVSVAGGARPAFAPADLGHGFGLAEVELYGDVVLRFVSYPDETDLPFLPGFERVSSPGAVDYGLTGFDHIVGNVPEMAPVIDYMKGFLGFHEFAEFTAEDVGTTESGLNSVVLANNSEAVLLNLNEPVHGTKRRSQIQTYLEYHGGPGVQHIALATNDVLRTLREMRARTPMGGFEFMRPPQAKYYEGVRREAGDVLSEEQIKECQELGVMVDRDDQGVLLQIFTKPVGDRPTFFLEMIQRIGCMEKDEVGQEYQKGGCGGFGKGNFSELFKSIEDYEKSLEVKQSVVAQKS
UniProt A0ACD5V6K6, entry or part of it R214G/V218I/V260A/P271N/S304T/A327R/I340E/L359M: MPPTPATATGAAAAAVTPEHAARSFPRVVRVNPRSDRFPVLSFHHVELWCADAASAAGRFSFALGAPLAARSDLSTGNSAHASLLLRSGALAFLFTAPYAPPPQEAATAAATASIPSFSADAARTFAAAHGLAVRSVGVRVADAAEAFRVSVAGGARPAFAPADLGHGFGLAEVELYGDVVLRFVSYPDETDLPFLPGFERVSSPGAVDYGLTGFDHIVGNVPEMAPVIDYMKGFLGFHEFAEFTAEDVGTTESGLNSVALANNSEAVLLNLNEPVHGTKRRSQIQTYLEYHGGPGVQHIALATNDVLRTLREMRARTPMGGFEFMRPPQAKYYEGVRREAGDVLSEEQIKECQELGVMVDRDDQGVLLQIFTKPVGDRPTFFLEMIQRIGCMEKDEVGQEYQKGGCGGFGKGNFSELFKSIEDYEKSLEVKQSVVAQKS

Holding throughout (assay): biochemical
Experiment [1] concerns the target HPPD variant AVESA V162 (SEQ ID NO: 122) (Avena sativa, UniProt A0ACD5V6K6, A327R/I340E/L359M/V218I). On the procedure:
(§1) 25 ul of the overnight cultures were inoculated into fresh 96-deepwell block containing 1 ml Formedium Autoinduction Media (AIM). The AIM cultures were grown for 3h at 37° C. (900rpm) and then transferred to 20° C. overnight (900rpm) to allow protein expression. The overnight cultures were centrifuged and 500 ul of Cellytic B (Sigma Aldrich) was added to resuspend the cell pellets. The coupled HGO assay (Siehl et al, 2014) is used to generate IC50 values for the HPPD variants of interest.
(§2) E. coli BL21 (DE3) cells were transformed with a pET24a vector containing a C-terminally his-tagged Arabidopsis HGO gene, grown and induced overnight as described for the HPPD variants above. The cell pellet was resuspended in phosphate buffered saline at pH 7.4 containing 10% Glycerol, 1mm Tris[2-carboxyethyl] phosphine-HCl (TCEP) plus 30 mM Imidazole and lysed using lysozyme/benzonase. The extract was clarified by low speed centrifugation and purified in the same buffer down a 1 ml His Gravitrap column. The bound HGO was eluted in 0.25M imidazole and the fractions pooled and beaded into liquid nitrogen. All procedures apart from the centrifugation and beading steps were carried out under a nitrogen atmosphere.
(§3) The coupled HGO assay is carried out by adding 10 ul of HPPD extract to a 96-well plate and then adding 40 ul of reaction buffer (50 mM Bis Tris Propane, pH7.0, 25 mM sodium-L-ascorbate, 400μM mercaptoethanol, 50 μM Fe(II)SO4). The plates are left to incubate for 5 minutes on ice. […] 200 ul of HPP/HGO (197 μM hydroxyphenylpyruvic acid, 16 μl/ml Homogentisic Acid Oxidase in reaction buffer as described above) buffer is then added to the well and the reaction is regularly monitored (e.g. every 30 seconds-5 minutes) for absorbance at 330 nm for a given time period (e.g., for between 15-60 minutes). The data can then be used to calculate the IC50 value for each HPPD variant of interest.

The target of experiment [2] is HPPD variant AVESA V180 (SEQ ID NO: 124) (Avena sativa, UniProt A0ACD5V6K6, A327R/G411A/I340E/L359M/V218I). On the procedure:
as §1, §2, §3

The target of experiment [3] is HPPD variant AVESA V200 (SEQ ID NO: 5) (Avena sativa, UniProt A0ACD5V6K6, A327R/I340E/L359M/V218I/V260A). As to the method: as §1, §2, §3
Experiment [4] concerns the target HPPD variant AVESA V208 (SEQ ID NO: 14) (Avena sativa, UniProt A0ACD5V6K6, A327R/I340E/L359M/P271N/V218I). As to the method:
as §1, §2, §3

Experiment [5] concerns the target HPPD variant AVESA V209 (SEQ ID NO: 17) (Avena sativa, UniProt A0ACD5V6K6, A327R/I340E/L359M/R214G/V218I/V260A). On the procedure: as §1, §2, §3
For experiment [6], the target named is HPPD variant AVESA V296 (SEQ ID NO: 20) (Avena sativa, UniProt A0ACD5V6K6, A327R/G411A/I340E/L359Y/R214G/V218I). As to the method: as §1, §2, §3
In experiment [7] the target is HPPD variant AVESA V306 (SEQ ID NO: 32) (Avena sativa, UniProt A0ACD5V6K6, A327R/I340E/L359M/P271N/R214G/V218I). On the procedure:
as §1, §2, §3

Experiment [8] has as its target HPPD variant AVESA V307 (SEQ ID NO: 35) (Avena sativa, UniProt A0ACD5V6K6, A327R/I340E/L359M/P271N/R214G/V218I/V260A). On the procedure: as §1, §2, §3
Experiment [9] addresses HPPD variant AVESA V313 (SEQ ID NO: 38) (Avena sativa, UniProt A0ACD5V6K6, A327R/I340E/L359Y/P271N/R214G/V218I/V260A). On the procedure:
as §1, §2, §3

In experiment [10] the target is HPPD variant AVESA V332 (SEQ ID NO: 44) (Avena sativa, UniProt A0ACD5V6K6, A327R/I340E/K404N/L359M/P271N/R214G/V218I/V260A). On the procedure: as §1, §2, §3
For experiment [11], the target named is HPPD variant AVESA V349 (SEQ ID NO: 47) (Avena sativa, UniProt A0ACD5V6K6, A327R/I340E/L359M/P271N/S304T/V218I). On the procedure:
as §1, §2, §3

In experiment [12] the target is HPPD variant AVESA V351 (SEQ ID NO: 50) (Avena sativa, UniProt A0ACD5V6K6, A327R/G411A/I340E/L359Y/R214G/S304T/V218I). On the procedure: as §1, §2, §3
Experiment [13] has as its target HPPD variant AVESA V357 (SEQ ID NO: 53) (Avena sativa, UniProt A0ACD5V6K6, A327R/I340E/L359M/P271N/R214G/S304T/V218I). As to the method:
as §1, §2, §3

Experiment [14] has as its target HPPD variant AVESA V358 (SEQ ID NO: 56) (Avena sativa, UniProt A0ACD5V6K6, A327R/I340E/L359M/P271N/R214G/S304T/V218I/V260A). As to the method: as §1, §2, §3

In general, IC50 refers to the concentration at which inhibition is half-maximal. Read a low IC50 as inhibition by little substance. For the molecule `CS(=O)(=O)c1ccc(C(=O)C2C(=O)CCCC2=O)c([N+](=O)[O-])c1` [Mesotrione, mesotrione], the IC50 is 11.5 µM in experiment [1]; 47.2 µM in experiment [2]; 18.6 µM in experiment [3]; greater than 500 µM in experiment [4]; 24.4 µM in [5]; 114 µM in [6]. The IC50 in experiment [7] is roughly 50 µM; in [8] it was greater than 500 µM; in experiment [9], 31.5 µM; in experiment [10], 347 µM; in experiment [11] it was roughly 50 µM; in experiment [12], 137 µM. In addition, the IC50 in experiment [13] is greater than 500 µM; in experiment [14], 20.6 µM.
